Rows were chosen to be rich in hits. Some 13% of all compounds tested hit in one or more screens of this group.
Sfp PPTase inh: inhibitors of Bacillus subtilis Sfp phosphopantetheinyl transferase. Q9F4F7. Biochemical Sfp PPTase activity, qHTS. Potency, µM, inactives show max response, negative = inhibition, most hits filed as inhibitors. 3.5% of 310,000 active. AID 1490; active = well fitted inhibition curve with a large enough effect; inconclusive = small, poorly fitted or top-dose-only effect, or another doubt; inactive = no such curve, though single readings can be large or run the other way;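 also: the enzyme is Sfp with the accession as filed and its product quenches rhodamine fluorescence; potency is read from the fitted curve at half-maximal effect; 0% = enzyme reaction without inhibitor and -100% = no enzyme wells; top concentration of the series not given in the record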
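Step 1, compound plus 15 nM Sfp-PPTase, 15 min, room temperature. Step 2, add rhodamine-CoA (5 uM) and BHQ-2-YbbR (12.5 uM). Step 3, read 525/598 nm fluorescence at 0 and 30 min.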
Lamin A splicing: LMNA splicing modulation; 200,000 tested, 0.01% active; AID 1487; Potency, µM (series often up to 46.1 µM), for inactives: at the highest dose ratio change, negative = inhibition, hits mostly inhibitors; HeLa LMNA splicing GFP/RFP minigene ratio, 48 h; active = well fitted inhibition curve with a large enough effect in the signal ratio, with a control signal flat, not every such curve was filed as active; inconclusive = small, poorly fitted or top-dose-only effect, or effect the other way, or a change in a side signal; the % refers to the signal ratio; note: potency is the fitted concentration of half-maximal effect; % is set by controls: 0 for no effect and ±100 for the full control effect
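Read-out is the ratio of GFP to DsRed2 object intensity, acquired by 488 nm laser-scanning cytometry on HeLa lamin A-EGFP minigene reporter cells. Compound incubation 48 hrs at 37 °C in Opti-MEM with 2% FBS; DMSO 0.5% final.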
miR-21 reporter: raises the signal of a miR-21 reporter | Potency, µM (highest dose often 38.3 µM), without a hit: at the top dose reporter change, positive = more light | HeLa miR-21 FLuc reporter, luciferase, 48 h | 340,000 tested, under 10 active; active = well fitted rising curve with a large enough effect; inconclusive = small, poorly fitted or top-dose-only effect; inactive = no such curve, though single readings can be large or run the other way;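 further: % of control where 0% means no effect; miR-21 action dims this reporter so a rising signal means less miR-21 action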
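HeLa cells stably expressing CMV-driven firefly luciferase with a downstream miR-21 binding sequence, endogenously expressing miR-21, were treated with titrations (up to about 40uM final) for 48 hours at 37 degree Celsius. Luciferase luminescence was read after lysis.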
G9a inh: G9a (human) methyltransferase inhibition; Q96KQ7; G9a H3K9 monomethylation, AlphaScreen, 2 h; Potency, µM (series often up to 102 µM), for the others: at the highest dose activity, negative = inhibition, most hits filed as inhibitors; 350,000 tested, 8.8% active; AID 504332; note: potency is the fitted concentration of half-maximal effect; % is set by controls: 0 for no effect and ±100 for the full control effect; nearly all actives have a fitted effect of over 75% in size
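Signal arises when biotinylated H3K9 peptide, once monomethylated, bridges streptavidin donor and antibody-captured acceptor beads. Enzyme at 20 nM was preincubated 15 min with test compounds; peptide 500 nM and SAM 20 uM then reacted for 2 h.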
ALDH1A1 inh: inhibitors of human aldehyde dehydrogenase 1A1. Purified ALDH1A1, NADH fluorescence, propionaldehyde substrate. P00352. 220,000 tested, 7.3% active. Potency, µM (series often up to 75.3 µM), for the others: top-dose activity, negative = inhibition, hits mostly inhibitors; active = well fitted inhibition curve with a large enough effect, not every such curve was filed as active; inconclusive = small, poorly fitted or top-dose-only effect, or another doubt; inactive = no such curve, though single readings can be large or run the other way;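 note: potency is the fitted concentration of half-maximal effect; plate controls were no enzyme wells and a reference inhibitor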
KDM4E inh: blocks human JMJD2E demethylase activity; B2RXH2; Potency, µM (titrated, usually from 57.1 µM), without a hit: at the highest dose activity change, negative = inhibition, usual class: inhibitors; 230,000 tested, 1.6% active; AID 2147; JMJD2E catalytic domain, FDH-coupled NADH fluorescence (FDH is formaldehyde dehydrogenase);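 note: potency is the fitted concentration of half-maximal effect; 0% = wells with enzyme and -100% = buffer wells without enzyme; nearly all actives have a fitted effect of over 50% in size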
* hit, by the source's call; [ ] = remark or other dose. Unless noted, calls come from the whole dose curve; as a rule, active = well fitted curve in the direction sought with a large enough effect; inconclusive = small, poorly fitted or top-dose-only effect, or another doubt; inactive = no such curve, though single readings can be large; an effect the other way counts as inactive or inconclusive.

For CCn1c(C)c(P(=O)(N2CCOCC2)N2CCOCC2)c2ccccc21 the results were Sfp PPTase inh 7%, Lamin A splicing -16%[46 µM], miR-21 reporter -2%, G9a inh 10%, ALDH1A1 inh 16% and KDM4E inh -3%.
`CCOc1ccccc1NC(=O)Cn1cc(C(=O)c2ccc(Cl)cc2)c(=O)c2ccc(C)nc21` gave Lamin A splicing 9%[46 µM], miR-21 reporter -2% and G9a inh -24%[59 µM].
Screening CN(C)S(=O)(=O)N1C(=O)c2ccccc2C1=O returned Sfp PPTase inh 13µM*, miR-21 reporter -1%, G9a inh -10%[2.33 µM], ALDH1A1 inh 11% and KDM4E inh 4%.
`Cc1nc(-c2ccccc2O)n(S(=O)(=O)N(C)C)n1` gave Sfp PPTase inh 1%, Lamin A splicing 0%, miR-21 reporter -16%, G9a inh 7%[12.7 µM], ALDH1A1 inh 11% and KDM4E inh 5%.
Screening COCC1=C2c3ccccc3[C@@H]3CNC(=O)C3(C(=O)OC)C[C@@H]2n2c(=O)n(-c3ccccc3)c(=O)n2C1 (stereo partly drawn) returned Sfp PPTase inh 4%, ALDH1A1 inh 0% and KDM4E inh 1%.
For O=C(NCc1ccco1)c1cc([N+](=O)[O-])ccc1Cl the results were Sfp PPTase inh 1%, Lamin A splicing inconclusive, miR-21 reporter 1%, ALDH1A1 inh -6% and KDM4E inh 5%.
`O=C(NCCN1CCOCC1)c1cc([N+](=O)[O-])ccc1Cl` gave Sfp PPTase inh 8%, miR-21 reporter 0% and G9a inh 56µM*.
Screening O=C(NCCN1CCOCC1)c1ccc(NS(=O)(=O)c2cccc([N+](=O)[O-])c2)cc1 returned G9a inh 50µM*.
O=C(NN1CCOCC1)c1ccc([N+](=O)[O-])cc1 was read as Sfp PPTase inh 7%, miR-21 reporter -7% and G9a inh -9%[59 µM].
O=C(NCc1ccco1)c1cc([N+](=O)[O-])ccc1N1CCOCC1 was read as Sfp PPTase inh 5%, Lamin A splicing 1%[46 µM], miR-21 reporter 2%, G9a inh 10µM*, ALDH1A1 inh inconclusive and KDM4E inh -5%.
`O=C(NCCN1CCOCC1)c1ccc([N+](=O)[O-])cc1[N+](=O)[O-]` gave Sfp PPTase inh -11%, Lamin A splicing inconclusive, miR-21 reporter 1%, G9a inh -14%[59 µM], ALDH1A1 inh 2% and KDM4E inh -3%.
Screening O=C(NCCN1CCOCC1)c1ccc(NS(=O)(=O)c2ccccc2)cc1 returned Sfp PPTase inh 4%, miR-21 reporter -13% and G9a inh 22%.
For O=C(CN1CCOCC1)NNC(=O)c1ccc([N+](=O)[O-])cc1 the results were Sfp PPTase inh -3%, miR-21 reporter -1% and G9a inh 50µM*.
For CC(=O)c1ccc(NC(=O)CSc2nc(-c3cccc(F)c3)nc3c2c(=O)n(C)c(=O)n3C)cc1 the results were Lamin A splicing inconclusive, miR-21 reporter -4% and G9a inh 1%[59 µM].
Cc1ccc(NC(=O)COC(=O)c2ccc(Cl)nc2)cc1S(=O)(=O)N1CCCCC1 was read as G9a inh 22%[2.33 µM].
Screening O=C(NCCN1CCOCC1)c1cc(S(=O)(=O)Nc2ccccc2F)c(Cl)cc1Cl returned Sfp PPTase inh 13%, miR-21 reporter 3%, G9a inh 50µM* and KDM4E inh -6%.
O=C(c1cc(S(=O)(=O)Nc2ccccc2F)c(Cl)cc1Cl)N1CCN(CCO)CC1 was read as Sfp PPTase inh 10%, miR-21 reporter -1%, G9a inh inconclusive, ALDH1A1 inh 5% and KDM4E inh -4%.
For COCCN1C(=O)/C(=C/c2ccc(Oc3ccc([N+](=O)[O-])cn3)c(OC)c2)SC1=Nc1ccccc1 the results were Sfp PPTase inh 10%, Lamin A splicing 3%, miR-21 reporter -3%, G9a inh -1%[59 µM], ALDH1A1 inh 0.4µM* and KDM4E inh 3%.

Grouped by structure: the compounds so far containing a furan ring, fused or not
For O=C(NCc1ccco1)c1cc([N+](=O)[O-])ccc1Cl the results were Sfp PPTase inh 1%, Lamin A splicing inconclusive, miR-21 reporter 1%, ALDH1A1 inh -6% and KDM4E inh 5%.
O=C(NCc1ccco1)c1cc([N+](=O)[O-])ccc1N1CCOCC1 was read as Sfp PPTase inh 5%, Lamin A splicing 1%[46 µM], miR-21 reporter 2%, G9a inh 10µM*, ALDH1A1 inh inconclusive and KDM4E inh -5%.

Compound activity deposited in PubChem by National Center for Advancing Translational Sciences (NCATS).
